Laboratory results published in patent publication EP4763868A1, “RECOMBINANT PTH FUSION PROTEIN, CONSTRUCTION METHOD THEREFOR, AND APPLICATION THEREOF” (KANGZHONG (GUANGDONG) INC., priority 2024, dated 2025).

Assay: Pharmacodynamic assay in animals (serum calcium, Arsenazo III calcium assay kit)
Format: in vivo
Conditions: male C57 mice, intraperitoneal injection, 20 nmol/kg and/or 10 nmol/kg
Experimental: Eight-week-old male C57 mice were selected for the experiment. The fusion proteins prepared in Examples 1-11 and the control TP were separately diluted with PBS to the concentrations required for the assay. The fusion proteins and TP were administered via intraperitoneal injection at two dosages: 20 nmol/kg and/or 10 nmol/kg, with 3 mice per group. Animals in the blank control group (KB) received an equal volume of normal saline via intraperitoneal injection. Blood samples were collected at 0 h (before injection) and at 1 h, 3 h, 6 h, 24 h, 48 h, and 72 h after injection. The blood samples were allowed to stand at 4°C for 1 hour, and the centrifuged at 4000 rpm for 5 minutes. The serum was harvested after centrifugation. The calcium ion concentration in the mouse serum was quantitatively determined using an Arsenazo III calcium assay kit (Zhongshan Biogentech, China) according to the manufacturer's instructions.

Structure (SMILES): CC[C@H](C)[C@H](NC(=O)[C@H](CCC(=O)O)NC(=O)[C@H](CO)NC(=O)[C@@H](NC(=O)[C@@H](N)CO)C(C)C)C(=O)N[C@@H](CCC(N)=O)C(=O)N[C@@H](CC(C)C)C(=O)N[C@@H](CCSC)C(=O)N[C@@H](Cc1c[nH]cn1)C(=O)N[C@@H](CC(N)=O)C(=O)N[C@@H](CC(C)C)C(=O)NCC(=O)N[C@@H](CCCCN)C(=O)N[C@@H](Cc1c[nH]cn1)C(=O)N[C@@H](CC(C)C)C(=O)N[C@@H](CC(N)=O)C(=O)N[C@@H](CO)C(=O)N[C@@H](CCSC)C(=O)N[C@@H](CCC(=O)O)C(=O)N[C@@H](CCCNC(=N)N)C(=O)N[C@H](C(=O)N[C@@H](CCC(=O)O)C(=O)N[C@@H](Cc1c[nH]c2ccccc12)C(=O)N[C@@H](CC(C)C)C(=O)N[C@@H](CCCNC(=N)N)C(=O)N[C@@H](CCCCN)C(=O)N[C@@H](CCCCN)C(=O)N[C@@H](CC(C)C)C(=O)N[C@@H](CCC(N)=O)C(=O)N[C@@H](CC(=O)O)C(=O)N[C@H](C(=O)N[C@@H](Cc1c[nH]cn1)C(=O)N[C@@H](CC(N)=O)C(=O)N[C@@H](Cc1ccccc1)C(=O)O)C(C)C)C(C)C [TP(PTH(1-34)), teriparatide]
- time within which serum calcium levels are elevated: ≤ 2 h
- time within which serum calcium restores to normal: ≤ 6 h
